The list shows a part of the results, in another mix than the full data.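 In brief: 96-well plates, 48 h treatment, single concentration, percent growth endpoint.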 Activity calls are given as the source filed them. Rule for the calls: active = growth percent below 10; inactive = the rest.
Legend:
Experiment in all cases: NCI-60 one-dose screen, 48 h (100 = growth as untreated, 0 = no growth, -100 = all killed)
[1] = test system: HCT-15 colon; conditions: 10 µM unless noted
[2] = test system: HT29 colon; conditions: 10 µM unless noted
[3] = test system: SNB-75 CNS; conditions: 10 µM unless noted
[4] = test system: SNB-19 CNS; conditions: 10 µM unless noted
[5] = test system: U251 CNS; conditions: 10 µM unless noted
[6] = test system: PC-3 prostate; conditions: 10 µM unless noted
[7] = test system: SK-MEL-5 melanoma; conditions: 10 µM unless noted
[8] = test system: UACC-62 melanoma; conditions: 10 µM unless noted
[9] = test system: LOX IMVI melanoma; conditions: 10 µM
[10] = test system: SK-MEL-28 melanoma; conditions: 10 µM unless noted
[11] = test system: SK-MEL-2 melanoma; conditions: 10 µM unless noted
[12] = test system: SN12C renal; conditions: 10 µM unless noted
[13] = test system: UO-31 renal; conditions: 10 µM unless noted
[14] = test system: TK-10 renal; conditions: 10 µM unless noted
[15] = test system: ACHN renal; conditions: 10 µM unless noted
[16] = test system: CAKI-1 renal; conditions: 10 µM unless noted
[17] = test system: A498 renal; conditions: 10 µM unless noted
[18] = test system: HL-60(TB) leukemia; conditions: 10 µM unless noted
[19] = test system: EKVX NSCLC; conditions: 10 µM unless noted
[20] = test system: CCRF-CEM leukemia; conditions: 10 µM unless noted

Measured: growth

COc1ccc([As](=O)(O)O)cc1
inactive: [1] 105% | [2] 108% | [3] 82.2% | [4] 101% | [5] 99.1% | [6] 97.1% | [7] 102% | [8] 105% | [9] 45.9% | [10] 109% | [11] 135% | [12] 99% | [13] 93.3% | [14] 119% | [15] 105% | [16] 109% | [17] 110% | [18] 107%

Cc1ccc(SP(=O)(CCl)N(CCCl)CCCl)cc1 (configuration not stated)
inactive: [1] 95% | [2] 88.1% | [3] 80.8% | [4] 97.9% | [5] 94.4% | [6] 85% | [7] 98.6% | [8] 97.5% | [9] 102% | [10] 104% | [11] 83.5% | [12] 101% | [13] 84.6% | [14] 97% | [15] 94.4% | [16] 87.7% | [17] 101% | [18] 97%

ClCCNC(Cc1ccccc1)c1ccccc1 (configuration not stated)
inactive: [1] 91.8% | [2] 87.3% | [3] 79.6% | [4] 96.3% | [5] 97.8% | [6] 89.7% | [7] 97.6% | [8] 94.1% | [9] 89.8% | [10] 107% | [11] 97.3% | [19] 93.9% | [13] 92.1% | [14] 97.4% | [15] 100% | [16] 92.5% | [17] 53.7% | [18] 101% | [20] 114%

COP(=O)(CCCBr)OC
inactive: [1] 96.8% | [2] 100% | [3] 89.8% | [4] 99.4% | [5] 96.9% | [6] 98.1% | [7] 99.5% | [8] 104% | [9] 99.5% | [10] 101% | [11] 107% | [12] 98.2% | [13] 91.8% | [14] 101% | [15] 100% | [16] 97.7% | [17] 122% | [18] 102% | [20] 94%

Cc1ccc(C)c(C(=O)N(CCCl)CCCl)c1
inactive: [1] 101% | [2] 105% | [3] 97.2% | [4] 103% | [5] 97.9% | [6] 102% | [7] 101% | [8] 99.7% | [9] 105% | [10] 102% | [11] 101% | [12] 104% | [13] 87.5% | [14] 111% | [15] 99% | [16] 104% | [17] 103% | [18] 104%

Cn1c(=O)c2[nH]c(N(CCCl)CCCl)nc2n(C)c1=O
inactive: [1] 97.3% | [2] 94.8% | [3] 76.9% | [4] 116% | [5] 102% | [6] 94% | [7] 102% | [8] 104% | [9] 96.4% | [10] 109% | [11] 99.3% | [12] 109% | [13] 74.1% | [14] 102% | [15] 93.6% | [16] 93.8% | [17] 108% | [18] 87.1%

ClCC1CS1 (configuration not stated)
inactive: [1] 103% | [2] 100% | [3] 88.9% | [4] 108% | [5] 106% | [6] 101% | [7] 102% | [8] 108% | [9] 109% | [10] 95.3% | [11] 104% | [12] 108% | [13] 84.4% | [14] 91.1% | [15] 110% | [16] 99.6% | [17] 117% | [18] 99%

CCCCOP(N)(=O)OCCCC
inactive: [1] 101% | [2] 115% | [3] 92.4% | [4] 96.2% | [5] 99.2% | [6] 94.3% | [7] 94% | [8] 101% | [9] 102% | [10] 103% | [11] 96.8% | [12] 99.5% | [13] 81.6% | [14] 95.1% | [15] 91.6% | [16] 101% | [17] 105% | [18] 102%

ClCCN1CCNCC1
inactive: [1] 98.9% | [2] 102% | [3] 96.4% | [4] 97.5% | [5] 96% | [6] 109% | [7] 101% | [8] 97.2% | [9] 98.7% | [10] 106% | [11] 100% | [12] 96.6% | [13] 87.7% | [14] 97% | [15] 103% | [16] 95.7% | [17] 104% | [18] 101% | [20] 106%

NC(=S)N/N=C/c1ccc(N(CCF)CCCl)cc1
inactive: [1] 95.5% | [2] 89.3% | [3] 70.1% | [4] 102% | [5] 88.4% | [6] 75.2% | [7] 97.2% | [8] 93.8% | [9] 97.3% | [10] 98.5% | [11] 110% | [12] 87.8% | [13] 68.1% | [14] 115% | [15] 86.7% | [16] 94.5% | [17] 91.5% | [18] 95.5% | [20] 72.3%

CC(=O)NC(C)C(=O)N(CC(C)Cl)CC(C)Cl (configuration not stated)
inactive: [1] 94.9% | [2] 100% | [3] 86.3% | [4] 101% | [5] 92.4% | [6] 89.4% | [7] 94.3% | [8] 103% | [9] 98.2% | [10] 103% | [11] 108% | [12] 96.4% | [13] 90.2% | [14] 108% | [15] 89.5% | [16] 96.3% | [17] 104% | [18] 87.1%

O=P(CCl)(Sc1ccc(Cl)cc1)N(CCCl)CCCl (configuration not stated)
inactive: [1] 85% | [2] 89.1% | [3] 71.1% | [4] 93.4% | [5] 94.7% | [6] 76.7% | [7] 98.5% | [8] 92.6% | [9] 99.1% | [10] 99.7% | [11] 73.3% | [12] 108% | [13] 79.2% | [14] 89.6% | [15] 94.5% | [16] 91% | [17] 87.6% | [18] 91.1%

CCOP(=O)(CCCBr)OCC
inactive: [1] 104% | [2] 101% | [3] 83.5% | [4] 100% | [5] 102% | [6] 97.5% | [7] 98.2% | [8] 103% | [9] 104% | [10] 103% | [11] 107% | [12] 98.9% | [13] 89.8% | [14] 106% | [15] 103% | [16] 112% | [17] 100% | [18] 103% | [20] 95.5%

N/C(=N/[N+](=O)[O-])N(CCBr)N=O
inactive: [1] 96.6% | [2] 97% | [3] 86.2% | [4] 102% | [5] 97% | [6] 97.5% | [7] 108% | [8] 105% | [9] 38.9% | [10] 110% | [11] 86% | [12] 105% | [13] 87% | [14] 89.6% | [15] 97.5% | [16] 84% | [17] 108% | [18] 94.2%

COC(=O)N(C)[N+](=O)[O-]
inactive: [1] 93.5% | [2] 104% | [3] 81.5% | [4] 97.5% | [5] 95.4% | [6] 99.6% | [7] 110% | [8] 100% | [9] 108% | [10] 109% | [11] 118% | [12] 94.1% | [13] 97.3% | [14] 108% | [15] 89.5% | [16] 95.8% | [17] 101% | [18] 103%

O=C(Nc1cc([As](=O)(O)O)ccc1O)c1ccccc1
inactive: [1] 108% | [2] 106% | [3] 105% | [4] 96.9% | [5] 95.3% | [6] 95.9% | [7] 97.9% | [8] 89.8% | [9] 96.8% | [10] 113% | [19] 121% | [12] 88.4% | [13] 96.3% | [14] 133% | [15] 102% | [17] 94.6% | [18] 69.7% | [20] 108%

Cc1cc([N+](=O)[O-])cc([N+](=O)[O-])c1O
inactive: [1] 103% | [2] 108% | [3] 104% | [4] 102% | [5] 96.7% | [6] 101% | [7] 101% | [8] 96.3% | [9] 97.4% | [10] 107% | [11] 112% | [12] 96.5% | [13] 93.3% | [14] 104% | [15] 109% | [16] 101% | [17] 82.3% | [18] 98.1% | [20] 98.5%

From PubChem BioAssay (NCI)
